HCMV NEC inh: disrupts HCMV UL50-UL53 complex binding | HTRF UL50-UL53 interaction, normalized percent inhibition | inhibition, % (concentration not given with the values) | 190,000 tested, 0.15% active | AID 1918969; in the data active means inhibition above about 27%, passing the limit was not always enough
GIV Gai3 FP: inhibitors of GIV GBA-motif binding to rat Galpha-i3; P08753; Galpha-i3/FITC-GIV peptide fluorescence polarization, 90 min; hits give low values; scaled: aluminum fluoride 0%, vehicle 100%; percent of control (FP), % (test concentration not listed); 0.42% of 210,000 active; AID 1224905;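 active = replicate mean at 85% of control or lower, very high polarization wells dropped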;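 also: wells of about 15 µL received 100 nL stock; the first replicate is given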
GIV-Gai FP conf: confirmation of inhibitors of GIV binding to rat Galpha-i3. FITC-GIV peptide binding to Galphai3, fluorescence polarization; stronger effect = lower value. 580 tested, 38% active. fluorescence polarization, mP at 100 µM. shares compounds with GIV Gai3 FP. AID 1259350;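 active means inhibition score of 15 or more, meaning 100 minus mean polarization as percent of control over three replicates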
GIV-Gai AS conf: confirmation of inhibitors of GIV binding to human Galpha-i3; shares compounds with GIV Gai3 FP; AlphaScreen counts at 100 µM; AlphaScreen Galphai3-GIV binding, purified proteins, 90 min; stronger effect = lower value; 580 tested, 39% active;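 active means inhibition score at or above a set limit, where the score is 100 minus the three-replicate mean percent of control signal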
Numbers without * were called inactive; / = not tested or not shown. In the library only some 0.43% were active in any assay of this set; here they are far more common.

canonical_smiles	HCMV NEC inh	GIV Gai3 FP	GIV-Gai FP conf	GIV-Gai AS conf
CSc1nsc(SCC#N)n1	2	97	/	/
NC(=O)c1oc2ccccc2c1NC(=O)C1CC(=O)N(c2ccc(F)cc2)C1 (stereo not drawn)	-4	100	/	/
Cc1cc(=O)cc(C)n1-c1ccc(O)cc1	2	/	/	/
Cc1cc(=O)n(-c2ccc(O)cc2)[nH]1	69*	77*	49*	34971
CCOC(=O)C1=C(CSc2nc(CC)c(C)cc2C#N)OC(N)=C(C#N)C1c1ccc(F)cc1 (stereo not drawn)	2	/	/	/
Cc1ccc(C(C)NC(=O)CCc2nc(-c3cc4cc(C)ccc4[nH]c3=O)no2)cc1 (stereo not drawn)	-28	106	/	/
COc1ccc(N2C(=O)C(O)=C(c3ccccc3)C2c2ccc(Cl)cc2)cc1 (stereo not drawn)	-35	102	/	/
O=C(Nc1ccc(N2CCOCC2)cc1)Nc1ccc2nc(-c3ccco3)c(-c3ccco3)nc2c1	-38	97	/	/
O=C(NCCCO)Nc1ccc2nc(-c3ccco3)c(-c3ccco3)nc2c1	1	81*	58*	1698*
N#CC1=C(SCc2ccccc2)SC(c2ccc(C(=O)O)cc2)NC1=O (stereo not drawn)	/	74*	65	28170*
N#CC1=C(SCc2ccccc2)SC(CO)NC1=O (stereo not drawn)	-15	106	/	/
O=C(NCCc1ccccc1)C1CCN(c2cnccn2)CC1	-19	102	/	/
O=C(NC1CCN(Cc2ccccc2)CC1)C1CCN(c2cnccn2)CC1	-14	67*	62	43938
OCC1O[C@H](O)C(Cl)C(O)C1O (stereo partly drawn)	-23	105	/	/
OCC1O[C@H]([S-])[C@@H](O)C(O)[C@@H]1O.[Au+] (stereo partly drawn)	-111	65*	57*	6583*
O=C(COC(=O)c1ccco1)NC1CC1	16	/	/	/
CN1C(C(=O)Nc2ccc(OC(F)(F)F)cc2)=CC(c2ccc3c(c2)OCO3)=NS1(=O)=O	-28	55*	82	33536
CCc1ccc(NC(=O)C2=CC(c3ccc4c(c3)OCO4)=NS(=O)(=O)N2C)cc1	-12	106	/	/
CCOC(=O)c1cnc(SCC(=O)N(C)c2ccccc2)nc1N	/	105	/	/
Cc1ccccc1COc1ccc(C2CC(=O)Nc3nc(N)[nH]c(=O)c32)cc1 (stereo not drawn)	-22	98	/	/
CCOc1cc(/C=C/c2ccccc2OC)cc(=O)c2c(C)oc(C)c12	/	95	/	/
COc1cccc(=O)c2c(C)oc(C)c12	-73	25*	37*	7201*
CC(=O)Nc1ccc(-n2c(C)ccc2C)c(C(=O)O)c1	5	/	/	/
Cc1ccc(C)n1-c1ccccc1C(=O)O	30	5.7*	11*	1962*
CCCOc1ccc(Cl)cc1C(=O)O	3	100	/	/

The final six records of the section before open the next one.
canonical_smiles	HCMV NEC inh	GIV Gai3 FP	GIV-Gai FP conf	GIV-Gai AS conf
Cc1ccccc1COc1ccc(C2CC(=O)Nc3nc(N)[nH]c(=O)c32)cc1 (stereo not drawn)	-22	98	/	/
CCOc1cc(/C=C/c2ccccc2OC)cc(=O)c2c(C)oc(C)c12	/	95	/	/
COc1cccc(=O)c2c(C)oc(C)c12	-73	25*	37*	7201*
CC(=O)Nc1ccc(-n2c(C)ccc2C)c(C(=O)O)c1	5	/	/	/
Cc1ccc(C)n1-c1ccccc1C(=O)O	30	5.7*	11*	1962*
CCCOc1ccc(Cl)cc1C(=O)O	3	100	/	/
Cc1ccc(C)n1-c1cc(Cl)ccc1C(=O)O	80*	60*	59*	2339*
O=C(O)c1cccc(OC(F)F)c1	16	/	/	/
COc1ccc(/C=N/OCC(=O)Nc2oc(-c3ccccc3)c(-c3ccccc3)c2C#N)cc1OC	/	108	/	/
CC(C)c1ccc(NC2=NCC(=O)N2Cc2ccccc2)cc1	-11	99	/	/
CCC(C)NC(=O)CSc1nc2ccccc2c(=O)n1CCCC(=O)NCCc1ccc(OC)c(OC)c1 (stereo not drawn)	/	111	/	/
Cc1cccc(Nc2nc(C)c3nc(C)n(-c4cccc(C)c4)c3n2)c1	19	109	/	/
S=c1nc(C2COc3ccccc3O2)[nH][nH]1 (stereo not drawn)	-2	/	/	/
S=c1[nH]nc(C2COc3ccccc3O2)o1 (stereo not drawn)	-1	83*	68	3039*
Cc1cccc(NC(=O)c2cnn3c2NC(c2ccccc2)=CC3c2ccccc2)c1 (stereo not drawn)	-7	98	/	/
O=C(Nc1ccc(-c2nc3ncccc3o2)cc1)c1ccccc1	/	107	/	/
Cc1ccc(C(C)C)c(OCC(=O)Nc2cccc(-c3nc4ncccc4o3)c2)c1	-68	108	/	/
Cc1ccc(OCC(=O)Nc2ccc(-c3nc4ccccc4o3)cc2)c(C)c1	11	93	74	32376
Cc1cc(C)cc(C(=O)Nc2ccc(-c3nc4ncccc4o3)cc2)c1	-39	82*	81	27053
Cc1cc(C)c2oc(-c3ccc(NC(=O)COc4ccccc4C)cc3)nc2c1	-56	105	/	/
Cc1ccc(C(C)C)c(OCC(=O)Nc2cc(-c3nc4ncccc4o3)ccc2C)c1	/	88	62	43747
c1ccc(C2=NN(c3ccccc3)C(c3ccc4c(c3)OCO4)N2c2ccc(N3CCOCC3)cc2)cc1 (stereo not drawn)	/	110	/	/
O=c1oc2ccccc2c(O)c1C=Nc1ccccc1	-14	107	/	/
O=Cc1c(O)c2ccccc2c2ccccc12	-27	44*	38*	22285
COc1ccc2c(c1)N(C1CCCCC1)/C(=C1/SC(=S)N(C)C1=O)S2	/	109	/	/
COc1ccc2c(c1)N(C)/C(=C1/SC(=S)N(C)C1=O)S2	-3	94	72	33947
N#CC1(C#N)[C@H](c2ccc(F)cc2)[C@@H](C(=O)c2ccccc2)N2c3ccccc3C=C[C@@H]21	/	118	/	/
CCc1ccc(S(=O)(=O)/N=C2\C=CC(=O)c3ccccc32)cc1	/	5.6*	12*	1607*
CCc1ccc(S(=O)(=O)/N=C2/C=C(Nc3ccccc3)C(=O)c3ccccc32)cc1	/	101	/	/
Cc1ccccc1-n1c(SCC(=O)c2ccc(Cl)cc2)nc2[nH]ncc2c1=O	/	101	/	/
O=c1onc(-c2cccnc2)n1-c1ccccc1C(F)(F)F	8	107	/	/

Next part
canonical_smiles	HCMV NEC inh	GIV Gai3 FP	GIV-Gai FP conf	GIV-Gai AS conf
Cc1cc2c(n1-c1ccc(C(=O)N3CCN(c4ccccc4)CC3)cc1)CCCCC2	/	101	/	/
Cc1cc2c(n1-c1ccc(C(=O)O)cc1)CCCC2	66*	79*	58*	3001*
CC1OCC(OC(=O)c2ccccc2)CO1 (stereo not drawn)	11	103	/	/
CCCCC(=O)Nc1cc(-c2nc3cc(C(C)C)ccc3o2)ccc1OC	-10	97	/	/
CCOC(=O)CN1C(=O)C2CC=C(Cl)CC2C1=O (stereo not drawn)	-16	81*	61	47532
O=C1C2CC=C(Cl)CC2C(=O)N1CCO (stereo not drawn)	9	104	/	/
CCn1nnc(NCc2ccc(-c3ccc(C)c(Cl)c3)o2)n1	4	100	/	/
S=C(NCc1ccc2c(c1)OCO2)Nc1ccccc1	16	108	/	/
COc1cc(/C=C2\SC(=O)N(C)C2=O)ccc1Oc1ccc([N+](=O)[O-])cc1[N+](=O)[O-]	-20	96	/	/
COc1ccc(C=C2C(=O)NC(=O)NC2=O)cc1Oc1ccc([N+](=O)[O-])cc1[N+](=O)[O-]	51*	87	60	15324*
CN1c2ccccc2N(C)C1c1ccc(O)cc1	68*	16*	31*	16384*
CN1C(=O)c2ccccc2N(C)C1c1ccc(F)cc1 (stereo not drawn)	0	101	/	/
COc1ccc(N2CCN(C(=O)c3sc4ncn(CC(=O)Nc5ccc(C)c(Cl)c5)c(=O)c4c3C)CC2)cc1	/	106	/	/

Source: PubChem
